Earlier results as cited in paper PMC10223992, “In Silico-Motivated Discovery of Novel Potent Glycogen Synthase-3 Inhibitors: 1-(Alkyl/arylamino)-3H-naphtho[1,2,3-de]quinoline-2,7-dione Identified as a Scaffold for Kinase Inhibitor Development” (Pharmaceuticals, 2023).

System: GSK-3β
Set-up: method as in ChEMBL database [53]
Conditions: read-out: IC50 (GSK-3β, known actives); cited from earlier work

Question: With `Cc1cccc(N2CCN(CCCNC(=O)c3nc(-c4cccnc4)no3)C(C)C2)c1` (centres unmarked) [CHEMBL254582] as the compound, how does the IC50 read?
Answer: Its IC50 is 200 nM.

Question: With `Cc1cc(-c2cc(-c3nc4ccc(CN5CCN(C)CC5)cc4[nH]3)c(=O)[nH]n2)cc(C)c1O` [CHEMBL270473] as the compound, how does the IC50 read?
Answer: Its IC50 is 1.5 nM.
